These are literature values, as cited in patent publication US12357621B2, “BET inhibitors as a treatment for myelofibrosis” (Impact Biomedicines, Inc., priority 2021, dated 2025).

Protein sequences, listed by entry. Tags and fused reporters are not part of them. Lines headed by an entry give the natural chain unless they say otherwise; changes in a name come on top.
UniProt O60674: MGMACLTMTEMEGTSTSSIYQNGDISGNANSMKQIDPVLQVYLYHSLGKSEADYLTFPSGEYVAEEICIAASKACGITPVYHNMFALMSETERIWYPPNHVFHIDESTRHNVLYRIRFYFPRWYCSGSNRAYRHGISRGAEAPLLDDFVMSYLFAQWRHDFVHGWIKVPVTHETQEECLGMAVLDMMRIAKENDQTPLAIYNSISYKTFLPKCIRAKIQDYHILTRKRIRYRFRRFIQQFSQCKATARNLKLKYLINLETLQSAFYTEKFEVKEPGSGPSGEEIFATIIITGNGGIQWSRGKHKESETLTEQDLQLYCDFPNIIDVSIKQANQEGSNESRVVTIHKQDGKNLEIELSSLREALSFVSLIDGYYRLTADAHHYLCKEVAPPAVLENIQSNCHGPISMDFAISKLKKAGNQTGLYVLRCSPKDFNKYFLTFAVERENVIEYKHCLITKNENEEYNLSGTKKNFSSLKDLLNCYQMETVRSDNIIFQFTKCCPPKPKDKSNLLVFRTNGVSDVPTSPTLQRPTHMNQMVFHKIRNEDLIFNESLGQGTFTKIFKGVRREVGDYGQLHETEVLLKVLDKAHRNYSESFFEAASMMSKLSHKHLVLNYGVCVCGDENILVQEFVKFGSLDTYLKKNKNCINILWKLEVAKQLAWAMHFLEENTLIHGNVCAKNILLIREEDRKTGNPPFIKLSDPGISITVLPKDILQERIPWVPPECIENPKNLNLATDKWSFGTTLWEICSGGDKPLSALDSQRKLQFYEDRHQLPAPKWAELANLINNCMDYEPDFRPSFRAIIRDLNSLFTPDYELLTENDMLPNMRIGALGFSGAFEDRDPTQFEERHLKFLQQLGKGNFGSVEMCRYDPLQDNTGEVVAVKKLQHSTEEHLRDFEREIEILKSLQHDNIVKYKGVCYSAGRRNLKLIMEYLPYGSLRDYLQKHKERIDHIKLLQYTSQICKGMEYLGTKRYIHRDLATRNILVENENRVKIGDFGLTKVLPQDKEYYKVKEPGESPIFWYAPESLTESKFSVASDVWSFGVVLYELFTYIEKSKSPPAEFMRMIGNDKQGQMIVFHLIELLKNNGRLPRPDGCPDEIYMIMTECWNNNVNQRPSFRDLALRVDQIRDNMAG

In the series the target is JAK2 (Homo sapiens, UniProt O60674). The settings on record: cited from earlier work.

Consider `Cc1cnc(Nc2ccc(OCCN3CCCC3)cc2)nc1Nc1cccc(S(=O)(=O)NC(C)(C)C)c1` [fedratinib], for which the “inhibitory activity for JAK2 over family members JAK1, JAK3, and TYK2” value is given as “higher”.
